By UniProt entry, the sequences of proteins in these tests, tags left out.
UniProt P27487, whole entry: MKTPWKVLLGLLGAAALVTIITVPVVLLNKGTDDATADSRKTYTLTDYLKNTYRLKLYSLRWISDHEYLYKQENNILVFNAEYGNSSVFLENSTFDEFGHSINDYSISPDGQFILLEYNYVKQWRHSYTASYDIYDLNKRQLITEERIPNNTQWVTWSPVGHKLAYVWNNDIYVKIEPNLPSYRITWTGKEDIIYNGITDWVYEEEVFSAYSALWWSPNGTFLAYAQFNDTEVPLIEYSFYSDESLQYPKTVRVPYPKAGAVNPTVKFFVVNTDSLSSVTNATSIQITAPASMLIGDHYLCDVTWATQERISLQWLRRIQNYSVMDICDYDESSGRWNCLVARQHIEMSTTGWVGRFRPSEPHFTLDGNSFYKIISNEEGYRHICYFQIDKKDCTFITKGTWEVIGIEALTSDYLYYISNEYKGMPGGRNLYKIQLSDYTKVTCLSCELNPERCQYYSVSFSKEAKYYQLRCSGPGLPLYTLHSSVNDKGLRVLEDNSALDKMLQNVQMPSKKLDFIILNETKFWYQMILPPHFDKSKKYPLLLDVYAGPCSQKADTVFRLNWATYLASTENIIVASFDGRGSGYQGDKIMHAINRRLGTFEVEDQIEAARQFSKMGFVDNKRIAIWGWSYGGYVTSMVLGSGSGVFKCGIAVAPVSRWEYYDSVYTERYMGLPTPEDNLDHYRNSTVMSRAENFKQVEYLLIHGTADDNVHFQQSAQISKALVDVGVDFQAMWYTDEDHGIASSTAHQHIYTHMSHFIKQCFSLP

In patent publication US9962420B2, “Compositions and methods for treating diabetes, fatty liver, cardiopathies, insulin resistance, carbohydrate and fat metabolism” (VALBIOTIS, priority 2014, dated 2018):

Target: DPP-IV human recombinant expressed in SF9 cells (Homo sapiens, UniProt P27487)
Assay: Test of inhibition of DPP-IV
Type: biochemical

With `CC[C@H](C)[C@H](N)C(=O)N1CCC[C@H]1C(=O)N[C@H](C(=O)O)[C@@H](C)CC` [Diprotin A, diprotin A] the “% of inhibition DPP-IV” value (concentration of sample set at 250 μg/mL) was 89.3% and the “% of inhibition DPP-IV” value (concentration of sample set at 1.25 mg/mL) was 100%.
